In patent US20260242371A1, “LIPID PRODRUGS OF BROM[…] USES THEREOF” (priority 2023, published 2026):

Assay: In vitro release of 2-bromo-LSD from lipid prodrugs in human plasma supplemented with lipoprotein lipase
Details: 40 μM prodrug, human plasma with LPL, 0-180 minutes, 37° C.

| Structure (SMILES) | % 2-Br-LSD present at end of experiment |
| --- | --- |
| CCCCCCCC(=O)OCC(COC(=O)CCCCCCC)OC(=O)CC1(CC(=O)n2c(Br)c3c4c(cccc42)C2=C[C@@H](C(=O)N(CC)CC)CN(C)[C@@H]2C3)CC1 [Compound I-26, 2BL-C5bcPr-2-TG-octanoate] | +++ (+++ representing a percentage of 2-bromo-LSD greater than 25%) |
| CCCCCCCC/C=C\CCCCCCCC(=O)OCC(COC(=O)CCCCCCC/C=C\CCCCCCCC)OC(=O)CC(C)CCCCC(=O)n1c(Br)c2c3c(cccc31)C1=C[C@@H](C(=O)N(CC)CC)CN(C)[C@@H]1C2 (stereo partly drawn) [Compound I-2, 2BL-C8bMe-2-TG-oleate] | +++ (+++ representing a percentage of 2-bromo-LSD greater than 25%) |
| CCCCCCCC(=O)OCC(COC(=O)CCCCCCC)OC(=O)CC1(CC(=O)OCn2c(Br)c3c4c(cccc42)C2=C[C@@H](C(=O)N(CC)CC)CN(C)[C@@H]2C3)CC1 [Compound I-25, 2BL-ASI-C5bcPr-2-TG-octanoate] | +++ (+++ representing a percentage of 2-bromo-LSD greater than 25%) |
| CCCCCCCC/C=C\CCCCCCCC(=O)OCC(COC(=O)CCCCCCC/C=C\CCCCCCCC)OC(=O)CC(C)CC(=O)OCCCC(=O)n1c(Br)c2c3c(cccc31)C1=C[C@@H](C(=O)N(CC)CC)CN(C)[C@@H]1C2 (stereo partly drawn) [Compound I-14, 2BL-FSI4-C5bMe-2-TG-oleate] | +++ (+++ representing a percentage of 2-bromo-LSD greater than 25%) |
| CCCCCCCC(=O)OCC(COC(=O)CCCCCCC)OC(=O)CC(C)(C)CCC(=O)OCn1c(Br)c2c3c(cccc31)C1=C[C@@H](C(=O)N(CC)CC)CN(C)[C@@H]1C2 [Compound I-27, 2BL-ASI-C6bbGMe-2-TG-octanoate] | +++ (+++ representing a percentage of 2-bromo-LSD greater than 25%) |
| CCCCCCCC/C=C\CCCCCCCC(=O)OCC(COC(=O)CCCCCCC/C=C\CCCCCCCC)OC(=O)CC(C)CC(=O)OCn1c(Br)c2c3c(cccc31)C1=C[C@@H](C(=O)N(CC)CC)CN(C)[C@@H]1C2 (stereo partly drawn) [Compound I-4, 2BL-ASI-C5bMe-2-TG-oleate] | +++ (+++ representing a percentage of 2-bromo-LSD greater than 25%) |
| CCCCCCCC(=O)OCC(COC(=O)CCCCCCC)OC(=O)CC(C)(C)CCC(=O)OCCCCC(=O)n1c(Br)c2c3c(cccc31)C1=C[C@@H](C(=O)N(CC)CC)CN(C)[C@@H]1C2 [Compound I-19, 2BL-FSI5-C6bbGMe-2-TG-octanoate] | +++ (+++ representing a percentage of 2-bromo-LSD greater than 25%) |
| CCCCCCCC(=O)OCC(COC(=O)CCCCCCC)OC(=O)CC(C)CC(=O)OCOC(=O)n1c(Br)c2c3c(cccc31)C1=C[C@@H](C(=O)N(CC)CC)CN(C)[C@@H]1C2 (stereo partly drawn) [Compound I-7, 2BL-CASI-C5bMe-2-TG-octanoate] | +++ (+++ representing a percentage of 2-bromo-LSD greater than 25%) |
| CCCCCCCC(=O)OCC(COC(=O)CCCCCCC)OC(=O)CC(C)(C)CCC(=O)OCOC(=O)n1c(Br)c2c3c(cccc31)C1=C[C@@H](C(=O)N(CC)CC)CN(C)[C@@H]1C2 [Compound I-23, 2BL-CASI-C6bbGMe-2-TG-octanoate] | +++ (+++ representing a percentage of 2-bromo-LSD greater than 25%) |
| CCCCCCCC(=O)OCC(COC(=O)CCCCCCC)OC(=O)CC(C)(C)CC(=O)OCCCCC(=O)n1c(Br)c2c3c(cccc31)C1=C[C@@H](C(=O)N(CC)CC)CN(C)[C@@H]1C2 [Compound I-16, 2BL-FSI5-C5bbGMe-2-TG-octanoate] | +++ (+++ representing a percentage of 2-bromo-LSD greater than 25%) |
| CCCCCCCC(=O)OCC(COC(=O)CCCCCCC)OC(=O)CC(C)(C)CC(=O)OCOC(=O)n1c(Br)c2c3c(cccc31)C1=C[C@@H](C(=O)N(CC)CC)CN(C)[C@@H]1C2 [Compound I-9, 2BL-CASI-C5bbGMe-2-TG-octanoate] | +++ (+++ representing a percentage of 2-bromo-LSD greater than 25%) |
| CCCCCCCC(=O)OCC(COC(=O)CCCCCCC)OC(=O)CC(C)(C)CC(=O)OCCCC(=O)n1c(Br)c2c3c(cccc31)C1=C[C@@H](C(=O)N(CC)CC)CN(C)[C@@H]1C2 [Compound I-15, 2BL-FSI4-C5bbGMe-2-TG-octanoate] | +++ (+++ representing a percentage of 2-bromo-LSD greater than 25%) |
| CCCCCCCC(=O)OCC(COC(=O)CCCCCCC)OC(=O)CC(C)(C)CCC(=O)OCCCC(=O)n1c(Br)c2c3c(cccc31)C1=C[C@@H](C(=O)N(CC)CC)CN(C)[C@@H]1C2 [Compound I-22, 2BL-FSI4-C6bbGMe-2-TG-octanoate] | +++ (+++ representing a percentage of 2-bromo-LSD greater than 25%) |
| CCCCCCCC(=O)OCC(COC(=O)CCCCCCC)OC(=O)CC1(CC(=O)OCCCC(=O)n2c(Br)c3c4c(cccc42)C2=C[C@@H](C(=O)N(CC)CC)CN(C)[C@@H]2C3)CC1 [I-15′, 2BL-FSI4-C5bcPr-2-TG-octanoate] | +++ (+++ representing a percentage of 2-bromo-LSD greater than 25%) |
| CCCCCCCC/C=C\CCCCCCCC(=O)OCC(COC(=O)CCCCCCC/C=C\CCCCCCCC)OC(=O)CC(C)CCCCCCC(=O)n1c(Br)c2c3c(cccc31)C1=C[C@@H](C(=O)N(CC)CC)CN(C)[C@@H]1C2 (stereo partly drawn) [Compound I-24, 2BL-C10bMe-2-TG-oleate] | +++ (+++ representing a percentage of 2-bromo-LSD greater than 25%) |
| CCCCCCCC(=O)OCC(COC(=O)CCCCCCC)OC(=O)CC1(CC(=O)OCCCCC(=O)n2c(Br)c3c4c(cccc42)C2=C[C@@H](C(=O)N(CC)CC)CN(C)[C@@H]2C3)CC1 [Compound I-18, 2BL-FSI5-C5bcPr-2-TG-octanoate] | +++ (+++ representing a percentage of 2-bromo-LSD greater than 25%) |
| CCCCCCCC/C=C\CCCCCCCC(=O)OCC(COC(=O)CCCCCCC/C=C\CCCCCCCC)OC(=O)CC(C)CC(=O)OCCCCC(=O)n1c(Br)c2c3c(cccc31)C1=C[C@@H](C(=O)N(CC)CC)CN(C)[C@@H]1C2 (stereo partly drawn) [Compound I-17, 2BL-FSI5-C5bMe-2-TG-oleate] | +++ (+++ representing a percentage of 2-bromo-LSD greater than 25%) |
| CCCCCCCC/C=C\CCCCCCCC(=O)OCC(COC(=O)CCCCCCC/C=C\CCCCCCCC)OC(=O)CC(C)CC(=O)Oc1ccc(COC(=O)n2c(Br)c3c4c(cccc42)C2=C[C@@H](C(=O)N(CC)CC)CN(C)[C@@H]2C3)cc1 (stereo partly drawn) [Compound I-21, 2BL-CPHB-C5bMe-2-TG-oleate] | +++ (+++ representing a percentage of 2-bromo-LSD greater than 25%) |
| CCCCCCCC/C=C\CCCCCCCC(=O)OCC(COC(=O)CCCCCCC/C=C\CCCCCCCC)OC(=O)CC(C)CC(=O)n1c(Br)c2c3c(cccc31)C1=C[C@@H](C(=O)N(CC)CC)CN(C)[C@@H]1C2 (stereo partly drawn) [Compound I-1, 2BL-C5bMe-2-TG-oleate] | + (+ representing a percentage of 2-bromo-LSD of less than 5%) |
| CCCCCCCC/C=C\CCCCCCCC(=O)OCC(COC(=O)CCCCCCC/C=C\CCCCCCCC)OC(=O)CC(C)CC(=O)Oc1ccc(Cn2c(Br)c3c4c(cccc42)C2=C[C@@H](C(=O)N(CC)CC)CN(C)[C@@H]2C3)cc1 (stereo partly drawn) [Compound I-20, 2BL-PHB-C5bMe-2-TG-oleate] | + (+ representing a percentage of 2-bromo-LSD of less than 5%) |
| CCCCCCCC(=O)OCC(COC(=O)CCCCCCC)OC(=O)CC1(CC(=O)OCOC(=O)n2c(Br)c3c4c(cccc42)C2=C[C@@H](C(=O)N(CC)CC)CN(C)[C@@H]2C3)CC1 [I-9′, 2BL-CASI-C5bcPr-2-TG-octanoate] | +++ (+++ representing a percentage of 2-bromo-LSD greater than 25%) |
